Laboratory results reported in BindingDB's records for 17257840.

Amino acid sequences for entries named in this document (tags omitted). Residues count along the entry.
UniProt O43570, 25-354 limits assumed: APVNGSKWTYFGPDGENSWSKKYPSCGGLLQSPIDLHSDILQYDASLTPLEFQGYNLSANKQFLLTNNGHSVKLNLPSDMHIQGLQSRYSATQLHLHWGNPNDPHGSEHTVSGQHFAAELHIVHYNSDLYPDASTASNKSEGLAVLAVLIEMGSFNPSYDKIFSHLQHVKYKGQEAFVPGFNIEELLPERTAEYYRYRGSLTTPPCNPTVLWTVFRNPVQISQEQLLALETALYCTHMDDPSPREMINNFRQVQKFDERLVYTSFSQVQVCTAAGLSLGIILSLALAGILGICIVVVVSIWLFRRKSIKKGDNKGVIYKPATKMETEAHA

Molecular target: Carbonic anhydrase 12 (Homo sapiens, UniProt O43570)
Assay: Inhibition of human recombinant catalytic domain CA12

For `O=[As](O)(O)c1ccccc1`, the Ki was 840 µM.
